These are literature values, as cited in publication PMC3572206 (Biomaterials, 2012).

For this data set the following is noted: ref [11]; cited from earlier work.

For the substance Nitric oxide, the halflife in vivo result is given as “about 5 s”.
